Here are results for 1 compound from patent publication US9011882B2, “Dimethylarginine dimethylaminohydrolase inhibitors and methods of use thereof” (The Board of Trustees of the Leland Stanford Junior …, priority 2012, dated 2015).

Protein sequences, listed by entry. Tags and fused reporters are not part of them.
UniProt O94760, whole entry: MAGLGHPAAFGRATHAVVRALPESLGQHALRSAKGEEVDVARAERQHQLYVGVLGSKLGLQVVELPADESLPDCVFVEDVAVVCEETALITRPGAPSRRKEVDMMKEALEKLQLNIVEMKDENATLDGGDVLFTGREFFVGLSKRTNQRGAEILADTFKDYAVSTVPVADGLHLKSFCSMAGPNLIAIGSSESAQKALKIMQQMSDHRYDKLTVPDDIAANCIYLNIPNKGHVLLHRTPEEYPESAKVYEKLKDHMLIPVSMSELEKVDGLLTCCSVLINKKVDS

For this experiment, the target named is human DDAH1 (Homo sapiens (Human), UniProt O94760). Kind of experiment: Inhibitors of human DDAH-1 validated in full dose-response curves (Table 1). Type of experiment: biochemical.

Turning to `CP(=O)(O)c1nc2ccccc2s1`, the “Hill Slope” value was found to be 1.7.
